The source of these data is patent publication US12350272B2, “Pyridopyrimidinone derivatives for use as AXL inhibitors” (OSCOTEC INC., priority 2018, dated 2025).

Amino acid sequences for entries named in this document (tags omitted). Residues count along the entry.
UniProt P30530, 26-894 limits assumed: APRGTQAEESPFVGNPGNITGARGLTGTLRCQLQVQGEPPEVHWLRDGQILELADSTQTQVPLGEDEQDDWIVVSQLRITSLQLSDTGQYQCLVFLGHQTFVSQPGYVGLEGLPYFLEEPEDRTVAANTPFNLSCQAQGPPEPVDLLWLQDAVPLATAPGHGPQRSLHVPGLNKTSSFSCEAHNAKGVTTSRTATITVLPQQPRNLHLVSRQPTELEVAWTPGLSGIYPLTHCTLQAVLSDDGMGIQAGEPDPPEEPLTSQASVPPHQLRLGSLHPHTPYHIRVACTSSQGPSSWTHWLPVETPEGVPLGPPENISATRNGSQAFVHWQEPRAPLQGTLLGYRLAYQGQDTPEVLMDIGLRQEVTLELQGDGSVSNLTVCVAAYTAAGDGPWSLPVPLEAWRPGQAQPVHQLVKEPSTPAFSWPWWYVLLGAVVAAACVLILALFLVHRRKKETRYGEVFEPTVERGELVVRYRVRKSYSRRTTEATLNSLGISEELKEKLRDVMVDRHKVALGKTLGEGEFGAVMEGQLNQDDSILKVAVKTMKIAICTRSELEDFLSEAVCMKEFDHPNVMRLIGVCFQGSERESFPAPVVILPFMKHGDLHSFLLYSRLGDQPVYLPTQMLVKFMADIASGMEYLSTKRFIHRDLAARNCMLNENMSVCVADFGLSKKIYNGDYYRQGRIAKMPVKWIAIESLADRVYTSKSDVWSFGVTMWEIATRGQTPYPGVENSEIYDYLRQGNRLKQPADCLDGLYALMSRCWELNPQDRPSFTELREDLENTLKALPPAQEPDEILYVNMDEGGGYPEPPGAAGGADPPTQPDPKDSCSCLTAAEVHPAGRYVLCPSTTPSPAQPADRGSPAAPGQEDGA
UniProt O60674, whole entry: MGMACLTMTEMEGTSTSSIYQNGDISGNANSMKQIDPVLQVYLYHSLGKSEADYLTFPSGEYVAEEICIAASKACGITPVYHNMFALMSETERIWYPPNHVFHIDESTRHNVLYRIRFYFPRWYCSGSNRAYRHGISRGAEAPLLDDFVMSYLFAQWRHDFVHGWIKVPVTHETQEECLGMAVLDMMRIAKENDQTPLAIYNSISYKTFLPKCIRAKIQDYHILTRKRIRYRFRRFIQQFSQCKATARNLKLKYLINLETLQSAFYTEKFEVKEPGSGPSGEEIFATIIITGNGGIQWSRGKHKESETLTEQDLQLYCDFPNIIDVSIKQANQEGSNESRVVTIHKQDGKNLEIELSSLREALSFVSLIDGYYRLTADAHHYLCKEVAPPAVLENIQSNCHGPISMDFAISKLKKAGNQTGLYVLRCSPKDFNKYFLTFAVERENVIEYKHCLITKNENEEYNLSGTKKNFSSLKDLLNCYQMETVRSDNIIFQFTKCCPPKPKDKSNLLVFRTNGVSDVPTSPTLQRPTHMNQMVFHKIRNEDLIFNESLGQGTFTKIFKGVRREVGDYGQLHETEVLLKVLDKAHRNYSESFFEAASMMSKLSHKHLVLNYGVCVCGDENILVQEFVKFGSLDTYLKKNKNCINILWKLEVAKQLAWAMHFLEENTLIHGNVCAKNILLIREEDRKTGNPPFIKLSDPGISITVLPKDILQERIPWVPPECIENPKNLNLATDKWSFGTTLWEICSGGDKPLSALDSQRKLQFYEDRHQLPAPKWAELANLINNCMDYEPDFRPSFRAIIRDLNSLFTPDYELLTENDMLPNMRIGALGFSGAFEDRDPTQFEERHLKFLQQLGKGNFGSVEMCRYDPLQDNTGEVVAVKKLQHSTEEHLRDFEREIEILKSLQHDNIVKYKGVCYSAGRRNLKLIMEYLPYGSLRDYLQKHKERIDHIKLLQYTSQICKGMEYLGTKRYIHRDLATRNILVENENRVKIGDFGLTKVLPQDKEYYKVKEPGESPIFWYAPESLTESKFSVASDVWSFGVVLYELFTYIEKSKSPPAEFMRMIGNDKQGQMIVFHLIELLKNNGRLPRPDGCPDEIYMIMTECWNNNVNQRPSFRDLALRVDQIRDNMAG

One series has as its target Truncated human Axl (Homo sapiens, UniProt P30530). The experiment in a line: Kinase inhibition assay (inhibition of enzymatic Axl kinase activity). It is filed as biochemical. The note with it: read-out: Axl; Table 2, range of IC50 value; tested form: HCl.
For another series, the system named is MDA-MB-231 cells. The experiment in a line: Cell viability assay (ATPLite), MDA-MB-231. To be noted: read-out: MDA-MB-231 (GI50); 72 hour incubation; tested form: HCl. On the technique in general: ATP-based viability assays read luminescence as a measure of living cells.
For a further series, the system named is Hs578T cells. The experiment in a line: Cell viability assay (ATPLite), Hs578T. To be noted: read-out: Hs578T (GI50); 72 hour incubation; tested form: HCl.
A further series has as its target JAK2 (Homo sapiens (Human), UniProt O60674). Nature of the series: Biochemical inhibition of JAK2. The note with it: read-out: JAK2; Table 2, range of IC50 value; tested form: HCl.
The nature of series [1]: Drug exposure in rat after oral administration. It is filed as in vivo. To be noted: oral administration of 10 mg/kg, tested form: HCl.

The structures appear in SMILES notation.

By GI50 is commonly meant the concentration at which growth is held to half of that of the control. For the compound `NC1CCN(c2nc(Nc3ccc(Oc4ccccc4)cc3)c3c(=O)[nH]cc(Br)c3n2)CC1`, the IC50 on Truncated human Axl was in the range of 11 to 100 nM; at JAK2, 101 to 1000 nM. Also, the GI50 with MDA-MB-231 cells and in the series with Hs578T cells was 1100 to 3000 nM each time.

For the compound `O=c1[nH]ccc2nc(N[C@H]3CCNC3)nc(Nc3ccc(N4CCOCC4)cc3)c12`, the IC50 at Truncated human Axl fell in the range of 11 to 100 nM; at JAK2, 1 to 10 nM. Besides, the drug exposure entry in series [1] is given as “no drug exposure”.

As for `O=c1[nH]ccc2nc(N[C@H]3CCNC3)nc(Nc3ccc(C(F)(F)F)cc3)c12`, the IC50 on Truncated human Axl and at JAK2 was 11 to 100 nM throughout. For the same compound, in series [1], the drug exposure entry is given as “no drug exposure”.
